This assay deals with DHODH (Homo sapiens (Human), UniProt Q02127). Kind of assay: DHODH activity assay (coupled enzyme assay, DCIP reduction, absorbance at 610 nm). In kind it is biochemical. The procedure: The DHODH activity assay is a coupled enzyme assay in which oxidation of DHO and subsequent reduction of ubiquinone are stoichiometrically equivalent to the reduction of DCIP ([…]). The reduction of DCIP is accompanied by a loss of absorbance at 610 nm.
Buffer Preparation: 50 mM tris HCl, 150 mM KCl, and pH 8.0, 0.8% triton.
5 μL of Dimethyl sulfoxide or a compound of formula I in DMSO solution was added to the wells of a 96 well plate. Compounds of formula I were measured at 10 μM.
Protein along with buffer was added, so that the total volume including the DMSO was 87 μL. Compound and protein were incubated for half an hour at room temperature after mixing. 5 μL of 20 mM solution of L-Dihydroorotic acid, 5 μL of 2 mM solution of Decylubiquinone and 3 μL of 2 mM solution of 2,6-Dichloroindophenol sodium salt hydrate were added to the above solution (total assay volume 100 μL). The mixture was stirred for 2 min and absorbance was recorded at every 10 min at 610 nanometers.
Percent Inhibition is Calculated as Follows
Reaction containing compound has compound, buffer, enzyme and substrates
Positive control contains DMSO, buffer, enzyme and substrates
No Enzyme reaction contains DMSO, buffer and substrates
IC50 determination: • A 2 mM DMSO stock of the compound of formula I to be examined was prepared. ⅓rd dilutions were made as follows: […]

Protein sequences, listed by entry. Tags and fused reporters are not part of them. Lines headed by an entry give the natural chain unless they say otherwise; changes in a name come on top.
UniProt Q02127: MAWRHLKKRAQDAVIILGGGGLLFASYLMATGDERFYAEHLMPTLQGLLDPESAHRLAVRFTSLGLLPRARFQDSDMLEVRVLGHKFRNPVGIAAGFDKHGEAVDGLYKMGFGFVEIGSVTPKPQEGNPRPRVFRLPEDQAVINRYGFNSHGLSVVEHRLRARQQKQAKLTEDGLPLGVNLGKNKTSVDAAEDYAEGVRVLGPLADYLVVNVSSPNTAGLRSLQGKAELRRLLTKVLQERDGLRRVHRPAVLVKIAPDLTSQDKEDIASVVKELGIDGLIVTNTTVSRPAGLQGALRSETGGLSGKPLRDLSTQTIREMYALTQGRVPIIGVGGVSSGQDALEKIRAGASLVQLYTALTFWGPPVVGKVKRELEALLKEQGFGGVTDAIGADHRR

Consider `Cc1cc(C(=O)O)c2nc(-c3ccc(-c4ccc(NC(=O)[C@@H]5CCCN5)cc4)cc3)[nH]c2c1` [I89], for which half-maximal inhibition (IC50) was put at 0.692 µM.
